{"source": "ChEMBL document CHEMBL3621116", "about": "“Benzimidazole Derivatives as Potent JAK1-Selective Inhibitors” (J Med Chem, 2015)", "key": {"Homo sapiens [1]": {"species": "Homo sapiens", "experiment": "Selectivity ratio of IC50 for JAK3 (unknown origin) using 16 uM of ATP and Tyr6 peptide to IC50 for JAK1 (unknown origin) using 87 uM of ATP and Tyr6 peptide", "in_short": "(§1)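 JAK1 selectivity taken as IC50 against JAK2 or JAK3 divided by IC50 against JAK1. […] IC50s are means ± SD of three independent experiments.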"}, "Homo sapiens [2]": {"species": "Homo sapiens", "experiment": "Selectivity ratio of IC50 for JAK2 (unknown origin) using 35 uM of ATP and Tyr6 peptide to IC50 for JAK1 (unknown origin) using 87 uM of ATP and Tyr6 peptide", "in_short": "as §1"}}, "data": [{"smiles": "NCCn1c(Cc2ccccc2)nc2cc(C(N)=O)ccc21", "values": [{"measurement": "Ratio IC50", "setting": "Homo sapiens [1]", "result": 0.1}, {"measurement": "Ratio IC50", "setting": "Homo sapiens [2]", "result": 0.1}]}]}
